From PubChem BioAssay AID555 (SRMLSC, 2006)
The entries are a selection whose mix differs from that of the whole data set. Some tests of the compounds listed are not included; inactive here does not mean inactive elsewhere. Active and inactive are the calls of the source.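 How the source made its calls: active means ranked among the strongest by inhibition in the single 10 µM screen, a fixed top-ranked set picked for dose follow-up; inactive means the rest, inconclusive results apart.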

These compounds were tested on mevalonate kinase [Streptococcus pneumoniae D39] (assay: pneumococcal mevalonate kinase activity blockers – biochemical, PK/LDH-coupled NADH absorbance, primary screen (AID 555)). Settings: purified MK, PK/LDH-coupled NADH absorbance 340 nm; at 10 µM; hits give high values.
With `O=C(OC1CN2CCC1CC2)C(CO)(c1ccccc1)c1ccccc1` (configuration not stated) the inhibition was inactive: 6%. `CN(C)c1cccc(C(=O)NCC2(N(C)C)CCCCC2)c1` was tested, and the inhibition was inactive: 1%.
